Structures can show the parent of a compound that is named as a salt. Where two headings read alike, the source gives them in different places.

This note sets out measurements from patent US11185516B2 (Laboratorios Silanes S.A. DE C.V., priority 2016, dated 2021).

Where [1] appears, read: 2480 mg vs metformin hydrochloride 1000 mg.
Where [2] appears, read: 620 mg vs metformin hydrochloride 1000 mg.

On to `CN(C)C(=N)N=C(N)N` [Metformin hydrochloride, metformin hydrochloride, reference compound], for which, under setting [1], the “Ln AUCt0, differences attributed to the formula factor” value was “statistically significant differences”.
On to `CN(C)C(=N)N=C(N)N` [Metformin glycinate, N,N-dimethylimidodicarbonimidic diamide glycinate], for which, under setting [2], the “Ln AUC0∝, differences attributed to the formula factor” value was “statistically significant differences”; the “Ln AUCt0, differences attributed to the formula factor” value is “statistically significant differences”; the “Ln Cmax, differences attributed to the formula factor” value is given as “statistically significant differences”; the “bioequivalence (90% C.I. of Cmax, AUCt0, AUC0∞ vs 80%-125%)” value is “slight suprabioequivalence”. In addition, under setting [1], the “Ln AUC0∝, differences attributed to the formula factor” value is given as “statistically significant differences” and the “bioequivalence (90% C.I. of Cmax, AUCt0, AUC0∞ vs 80%-125%)” value is given as “infrabioequivalence”. Further, the “Tmax, comparative analysis” value (2480 mg vs metformin hydrochloride 1000 mg, single dose) was “statistically significant differences”. In addition, the gastrointestinal adverse reaction result (administered without food) is reported as “no detectable gastrointestinal adverse reaction”.
